Measured values reported in article PMC6920932, “Deciphering the Structural Basis of High Thermostability of Dehalogenase from Psychrophilic Bacterium Marinobacter sp. ELB17” (Microorganisms, 2019).

System: DmxA
Experiment: isothermal titration calorimetry, steady-state kinetics
Conditions: 100 mM glycine buffer pH 8.6, 37 °C; substrate inhibition

Structure (SMILES): BrCCBr
- Km: 800 µM
